In patent US10112926B2 (priority 2014, dated 2018):
Where a name gives a salt, the structure may show the parent alone.

The chains behind the UniProt entries cited, without tags or fusion partners. Where a name states a change or a piece, a line headed by the entry shows the natural chain unless it says otherwise.
UniProt Q8NEB9, whole entry: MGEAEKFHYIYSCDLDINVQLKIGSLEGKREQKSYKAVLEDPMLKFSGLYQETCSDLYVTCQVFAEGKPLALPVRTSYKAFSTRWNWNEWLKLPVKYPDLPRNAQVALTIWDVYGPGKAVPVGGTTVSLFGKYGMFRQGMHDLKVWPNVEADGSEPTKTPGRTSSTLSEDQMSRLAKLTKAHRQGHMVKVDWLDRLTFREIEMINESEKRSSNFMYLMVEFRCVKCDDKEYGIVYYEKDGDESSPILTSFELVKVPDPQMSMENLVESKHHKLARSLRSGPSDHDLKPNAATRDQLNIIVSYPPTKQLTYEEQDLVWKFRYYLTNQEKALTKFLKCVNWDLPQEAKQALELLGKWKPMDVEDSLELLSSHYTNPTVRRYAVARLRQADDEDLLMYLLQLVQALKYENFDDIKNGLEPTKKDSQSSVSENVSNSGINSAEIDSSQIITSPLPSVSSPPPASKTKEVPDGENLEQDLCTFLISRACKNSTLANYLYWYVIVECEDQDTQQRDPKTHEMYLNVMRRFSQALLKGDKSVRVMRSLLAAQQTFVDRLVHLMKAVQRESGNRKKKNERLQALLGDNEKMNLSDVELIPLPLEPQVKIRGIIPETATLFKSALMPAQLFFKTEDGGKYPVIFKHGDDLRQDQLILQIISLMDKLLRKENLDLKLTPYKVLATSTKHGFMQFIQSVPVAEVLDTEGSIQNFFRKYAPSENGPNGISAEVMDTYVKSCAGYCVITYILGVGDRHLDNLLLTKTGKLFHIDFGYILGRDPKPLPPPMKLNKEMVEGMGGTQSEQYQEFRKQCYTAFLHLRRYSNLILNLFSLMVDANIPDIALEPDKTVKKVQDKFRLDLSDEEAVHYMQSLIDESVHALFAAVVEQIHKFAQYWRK
UniProt Q9UBF8: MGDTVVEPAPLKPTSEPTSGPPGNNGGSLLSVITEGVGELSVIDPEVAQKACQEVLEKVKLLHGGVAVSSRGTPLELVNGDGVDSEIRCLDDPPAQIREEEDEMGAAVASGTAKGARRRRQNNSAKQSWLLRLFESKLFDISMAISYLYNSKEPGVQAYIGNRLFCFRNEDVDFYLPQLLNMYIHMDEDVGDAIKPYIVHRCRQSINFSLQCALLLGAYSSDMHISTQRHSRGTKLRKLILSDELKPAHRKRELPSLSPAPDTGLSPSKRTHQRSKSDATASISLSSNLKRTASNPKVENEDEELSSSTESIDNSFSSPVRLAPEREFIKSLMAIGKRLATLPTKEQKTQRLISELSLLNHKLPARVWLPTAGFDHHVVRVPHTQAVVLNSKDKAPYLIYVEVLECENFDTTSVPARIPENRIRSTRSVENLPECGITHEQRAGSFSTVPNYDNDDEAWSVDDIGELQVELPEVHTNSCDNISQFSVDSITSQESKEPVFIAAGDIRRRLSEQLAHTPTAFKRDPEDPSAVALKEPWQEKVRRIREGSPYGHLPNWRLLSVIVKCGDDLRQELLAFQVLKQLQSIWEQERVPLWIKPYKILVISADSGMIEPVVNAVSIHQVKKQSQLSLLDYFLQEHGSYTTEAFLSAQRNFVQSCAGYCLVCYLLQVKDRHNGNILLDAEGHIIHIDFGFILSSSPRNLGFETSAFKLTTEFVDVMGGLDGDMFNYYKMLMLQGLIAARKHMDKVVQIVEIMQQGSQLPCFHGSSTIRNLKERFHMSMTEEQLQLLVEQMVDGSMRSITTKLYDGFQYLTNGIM

What was measured:
Vps34 = Vps34 (Homo sapiens (Human), UniProt Q8NEB9); conditions: read-out: Assay C VPS34 IC50
PI 4-kinase beta = PI 4-kinase beta (Homo sapiens (Human), UniProt Q9UBF8); conditions: read-out: Assay D PI4Kβ IC50

SMILES | IC50 (Vps34) [nM] | IC50 (PI 4-kinase beta) [nM]
Cc1ncc(-c2cc(-c3cc(S(=O)(=O)NCCC(C)(C)O)ccc3C)cnc2N)s1 [Example 4, 3-(6-Amino-5-(2-methylthiazol-5-yl)pyridin-3-yl)-N-(3-hydroxy-3-methylbutyl)-4-methylbenzenesulfonamide] | 1950 | –
CCc1noc(-c2cc(-c3cc(S(=O)(=O)NCC(C)(C)O)ccc3C)cnc2N)n1 [Example 5.3, 3-(6-Amino-5-(3-ethyl-1,2,4-oxadiazol-5-yl)pyridin-3-yl)-N-(2-hydroxy-2-methylpropyl)-4-methylbenzenesulfon-amide hydrochloride] | – | 7500
Cc1noc(-c2cc(-c3cc(S(=O)(=O)N[C@H]4C[C@@H](O)C4)ccc3C)cnc2N)n1 [Example 5.5a, 3-(6-Amino-5-(3-methyl-1,2,4-oxadiazol-5-yl)pyridin-3-yl)-N-((1s,3s)-3-hydroxycyclobutyl)-4-methylbenzenesulfonamide] | – | 4600
Cc1ncc(-c2cc(-c3cc(S(=O)(=O)NCC(C)(C)O)ccc3C)cnc2N)o1 [Example 6, 3-(6-Amino-5-(2-methyloxazol-5-yl)pyridin-3-yl)-N-(2-hydroxy-2-methylpropyl)-4-methylbenzenesulfonamide] | – | 2730
Cc1cc(-c2cc(-c3cc(S(=O)(=O)NCC4(C)COC4)ccc3C)cnc2N)on1 [Example 17, 3-[6-Amino-5-(3-methyl-isoxazol-5-yl)-pyridin-3-yl]-4-methyl-N-(3-methyl-oxetan-3-ylmethyl)-benzenesulfonamide hydrochloride] | – | 1500
Cc1cc(-c2cc(-c3cc(S(=O)(=O)N4CC5(CCOC5)C4)ccc3C)cnc2N)on1 [Example 19.1, 5-(5-(6-oxa-2-azaspiro[3.4]octan-2-ylsulfonyl)-2-methylphenyl)-3-(3-methylisoxazol-5-yl)pyridin-2-amine trifluoroacetic acid salt] | > 10000 | –
Cc1cc(-c2cc(-c3cc(S(=O)(=O)N[C@H]4CC[C@H](N)CC4)ccc3C)cnc2N)on1 [Example 19.3, 3-(6-amino-5-(3-methylisoxazol-5-yl)pyridin-3-yl)-N-(trans-4-aminocyclohexyl)-4-methylbenzenesulfon-amide acetic acid salt] | – | 1200
Cc1cc(-c2cc(-c3cc(S(=O)(=O)NCC4(O)CC4)ccc3C)cnc2N)on1 [Example 19.10, 3-(6-amino-5-(3-methylisoxazol-5-yl)pyridin-3-yl)-N-((1-hydroxycyclopropyl)methyl)-4-methylbenzenesulfon-amide trifluoroacetic acid salt] | – | 3700
Cc1ccc(S(=O)(=O)NOCC(C)(C)O)cc1-c1cnc(N)c(-c2cnn(CC(F)(F)F)c2)c1 [Example 34, 3-(6-Amino-5-(1-(2,2,2-trifluoroethyl)-1H-pyrazol-4-yl)pyridin-3-yl)-N-(2-hydroxy-2-methylpropoxy)-4-methylbenzenesulfonamide hydrochloride] | – | 1300
Cc1cc(-c2cc(-c3cc(S(=O)(=O)NCC4(CO)CCCCC4)ccc3C)cnc2N)on1 [Example 37.3, 3-(6-Amino-5-(3-methylisoxazol-5-yl)pyridin-3-yl)-N-((1-(hydroxymethyl)cyclohexyl)methyl)-4-methylbenzenesulfonamide] | – | 1800
Cc1cc(-c2cc(-c3cc(S(=O)(=O)NCC4(O)CCCCC4)ccc3C)cnc2N)on1 [Example 37.9] | – | 1700
Cc1cc(-c2cc(-c3cc(S(=O)(=O)NCC4(CO)CCCC4)ccc3C)cnc2N)on1 [Example 37.23, 3-(6-Amino-5-(3-methylisoxazol-5-yl)pyridin-3-yl)-N-((1-(hydroxymethyl)cyclopentyl)methyl)-4-methylbenzenesulfonamide] | – | 2100
Cc1cc(-c2cc(-c3cc(S(=O)(=O)NCCC4(O)CCCCC4)ccc3C)cnc2N)on1 [Example 37.30, 3-(6-Amino-5-(3-methylisoxazol-5-yl)pyridin-3-yl)-N-(2-(1-hydroxycyclohexyl)ethyl)-4-methylbenzenesulfonamide] | – | 1900
Cc1cc(-c2cc(-c3cc(S(=O)(=O)NCC4(O)CCC4)ccc3C)cnc2N)on1 [Example 37.35, 3-(6-Amino-5-(3-methylisoxazol-5-yl)pyridin-3-yl)-N-((1-hydroxycyclobutyl)methyl)-4-methylbenzenesulfonamide] | – | 3200
Cc1cc(-c2cc(-c3cc(S(=O)(=O)NCC4(CO)COC4)ccc3C)cnc2N)on1 [Example 50, 3-(6-Amino-5-(3-methylisoxazol-5-yl)pyridin-3-yl)-N-((3-(hydroxymethyl)oxetan-3-yl)methyl)-4-methylbenzenesulfonamide] | – | 4700
Cc1cc(-c2cc(-c3cc(S(=O)(=O)NCC4(O)CCCC4)ccc3C)cnc2N)on1 [Example 53, 3-(6-Amino-5-(3-methylisoxazol-5-yl)pyridin-3-yl)-N-((1-hydroxycyclopentyl)methyl)-4-methylbenzenesulfonamide] | – | 2300
Cc1cc(-c2cc(-c3cc(S(=O)(=O)NCC4(O)CCOCC4)ccc3C)cnc2N)on1 [Example 54, 3-(6-Amino-5-(3-methylisoxazol-5-yl)pyridin-3-yl)-N-((4-hydroxytetrahydro-2H-pyran-4-yl)methyl)-4-methylbenzenesulfonamide] | – | 5200
Cc1ncc(-c2cc(-c3cc(S(=O)(=O)NCC4(CO)COC4)ccc3C)cnc2N)o1 [Example 67, 3-(6-Amino-5-(2-methyloxazol-5-yl)pyridin-3-yl)-N-((3-(hydroxymethyl)oxetan-3-yl)methyl)-4-methylbenzenesulfonamide] | – | 2300
Cc1ncc(-c2cc(-c3cc(S(=O)(=O)NCC4(CO)COC4)ccc3C)cnc2N)s1 [Example 68, 3-(6-Amino-5-(2-methylthiazol-5-yl)pyridin-3-yl)-N-((3-(hydroxymethyl)oxetan-3-yl)methyl)-4-methylbenzenesulfonamide] | – | 2500
Cc1cc(-c2cc(-c3cc(S(=O)(=O)NCCO)ccc3C)cnc2N)on1 [Example 73, 3-(6-Amino-5-(3-methylisoxazol-5-yl)pyridin-3-yl)-N-(2-hydroxyethyl)-4-methylbenzenesulfonamide] | – | 1100
Cc1cnc(-c2cc(-c3cc(S(=O)(=O)NCC(C)(C)O)ccc3C)cnc2N)s1 [Example 90, 3-(6-Amino-5-(5-methylthiazol-2-yl)pyridin-3-yl)-N-(2-hydroxy-2-methylpropyl)-4-methylbenzenesulfonamide] | – | 750
Cc1ncc(-c2cc(-c3cc(S(=O)(=O)NCC4CC(O)C4)ccc3C)cnc2N)o1 (stereo not drawn) [Example 104.1, 3-(6-amino-5-(2-methyloxazol-5-yl)pyridin-3-yl)-N-((3-hydroxycyclobutyl)methyl)-4-methylbenzenesulfon-amide] | – | 2400
Cc1ncc(-c2cc(-c3cc(S(=O)(=O)NCCCO)ccc3C)cnc2N)o1 [Example 104.6, 3-(6-amino-5-(2-methyloxazol-5-yl)pyridin-3-yl)-N-(3-hydroxypropyl)-4-methylbenzenesulfon-amide] | – | 2200
Cc1noc(-c2cc(-c3cc(S(=O)(=O)NCC(C)(C)O)c(C)cc3F)cnc2N)n1 [Example 113, 5-(6-amino-5-(3-methyl-1,2,4-oxadiazol-5-yl)pyridin-3-yl)-4-fluoro-N-(2-hydroxy-2-methylpropyl)-2-methylbenzenesulfonamide] | – | 2450
